The text below walks through data of ChEMBL document CHEMBL1129321, “Discovery of an orally active non-peptide fibrinogen receptor antagonist” (J Med Chem, 1996).

The species named for the test is Homo sapiens. In words: Inhibitory activity against aggregation of human platelets. Format: functional, organism-based. In a few lines:
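Human platelets were gel-filtered from PRP on Sepharose 2B and used at 3 × 10⁸ platelets/mL with 1 mg/mL fibrinogen. Compounds were added at 37 °C 2 min before activation with 10 µM ADP, with stirring at 1000 rpm at 37 °C. Aggregation was read as the maximal increase in light transmittance. IC50 is the mean over GFP from two to six donors.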

For orientation: IC50 means the concentration that inhibits the measured activity by half. Higher therefore signals weaker potency in that assay. In turn, `N=C(N)NCCC[C@H](N)C(=O)NCC(=O)N[C@@H](CC(=O)O)C(=O)N[C@@H](CO)C(=O)O` had an IC50 of 100 µM.
